{"sequences": {"note": "The chains behind the UniProt entries cited, without tags or fusion partners. Where a name states a change or a piece, a line headed by the entry shows the natural chain unless it says otherwise.", "UniProt O00329, whole entry": "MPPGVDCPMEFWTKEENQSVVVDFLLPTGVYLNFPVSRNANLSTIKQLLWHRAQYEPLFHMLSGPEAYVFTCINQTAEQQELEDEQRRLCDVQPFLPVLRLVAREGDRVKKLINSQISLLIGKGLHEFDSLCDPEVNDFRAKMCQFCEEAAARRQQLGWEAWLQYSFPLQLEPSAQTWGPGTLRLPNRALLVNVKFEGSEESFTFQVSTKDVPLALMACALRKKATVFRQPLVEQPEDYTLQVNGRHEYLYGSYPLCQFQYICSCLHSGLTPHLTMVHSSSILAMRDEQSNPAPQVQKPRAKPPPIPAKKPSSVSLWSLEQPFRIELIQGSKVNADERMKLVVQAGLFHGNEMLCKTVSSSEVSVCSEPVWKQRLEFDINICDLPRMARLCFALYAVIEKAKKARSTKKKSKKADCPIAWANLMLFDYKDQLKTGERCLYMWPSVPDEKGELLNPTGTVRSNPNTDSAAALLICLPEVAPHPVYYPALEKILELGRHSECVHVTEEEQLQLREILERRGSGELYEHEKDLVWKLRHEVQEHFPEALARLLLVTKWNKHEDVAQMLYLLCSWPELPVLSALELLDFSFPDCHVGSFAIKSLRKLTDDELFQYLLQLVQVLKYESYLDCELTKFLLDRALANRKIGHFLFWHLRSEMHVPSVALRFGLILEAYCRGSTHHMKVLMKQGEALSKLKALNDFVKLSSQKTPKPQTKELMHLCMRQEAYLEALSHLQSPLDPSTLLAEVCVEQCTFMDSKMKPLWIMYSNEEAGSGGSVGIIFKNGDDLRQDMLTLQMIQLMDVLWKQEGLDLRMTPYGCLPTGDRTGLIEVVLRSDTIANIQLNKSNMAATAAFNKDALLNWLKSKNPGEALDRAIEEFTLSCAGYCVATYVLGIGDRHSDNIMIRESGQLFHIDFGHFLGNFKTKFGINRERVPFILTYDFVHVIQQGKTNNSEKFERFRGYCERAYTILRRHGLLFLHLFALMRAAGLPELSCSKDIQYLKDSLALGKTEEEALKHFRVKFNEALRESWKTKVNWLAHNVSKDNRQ", "UniProt P48736, whole entry": "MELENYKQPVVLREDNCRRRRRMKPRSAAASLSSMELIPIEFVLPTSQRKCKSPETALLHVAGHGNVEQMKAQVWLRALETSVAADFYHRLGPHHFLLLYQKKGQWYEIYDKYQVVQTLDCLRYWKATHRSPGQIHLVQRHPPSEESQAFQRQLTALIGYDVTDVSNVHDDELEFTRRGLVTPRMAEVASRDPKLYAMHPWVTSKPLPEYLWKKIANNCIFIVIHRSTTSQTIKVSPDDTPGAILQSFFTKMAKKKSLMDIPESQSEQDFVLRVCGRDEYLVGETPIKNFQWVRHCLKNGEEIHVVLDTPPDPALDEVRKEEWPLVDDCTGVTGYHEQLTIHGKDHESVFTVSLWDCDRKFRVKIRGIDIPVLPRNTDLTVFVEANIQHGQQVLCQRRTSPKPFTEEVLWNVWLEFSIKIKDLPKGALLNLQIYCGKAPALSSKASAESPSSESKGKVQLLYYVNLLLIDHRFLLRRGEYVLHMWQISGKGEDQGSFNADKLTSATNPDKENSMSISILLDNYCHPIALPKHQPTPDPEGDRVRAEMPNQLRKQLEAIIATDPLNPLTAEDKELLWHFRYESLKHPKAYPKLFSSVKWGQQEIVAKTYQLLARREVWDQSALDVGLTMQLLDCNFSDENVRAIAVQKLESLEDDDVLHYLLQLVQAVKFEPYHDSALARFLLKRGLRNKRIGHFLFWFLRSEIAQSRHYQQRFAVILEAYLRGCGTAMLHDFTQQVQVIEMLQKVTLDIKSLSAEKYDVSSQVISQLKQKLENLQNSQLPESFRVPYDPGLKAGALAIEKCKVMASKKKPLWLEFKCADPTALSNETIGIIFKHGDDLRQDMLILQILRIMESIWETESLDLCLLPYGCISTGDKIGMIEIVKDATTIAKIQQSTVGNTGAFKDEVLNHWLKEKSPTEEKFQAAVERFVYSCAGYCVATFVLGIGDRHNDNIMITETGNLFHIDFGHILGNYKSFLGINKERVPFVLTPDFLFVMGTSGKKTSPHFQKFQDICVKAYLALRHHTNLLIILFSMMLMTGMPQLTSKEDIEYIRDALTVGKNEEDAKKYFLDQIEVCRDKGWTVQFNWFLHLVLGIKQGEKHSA", "UniProt P42338, whole entry": "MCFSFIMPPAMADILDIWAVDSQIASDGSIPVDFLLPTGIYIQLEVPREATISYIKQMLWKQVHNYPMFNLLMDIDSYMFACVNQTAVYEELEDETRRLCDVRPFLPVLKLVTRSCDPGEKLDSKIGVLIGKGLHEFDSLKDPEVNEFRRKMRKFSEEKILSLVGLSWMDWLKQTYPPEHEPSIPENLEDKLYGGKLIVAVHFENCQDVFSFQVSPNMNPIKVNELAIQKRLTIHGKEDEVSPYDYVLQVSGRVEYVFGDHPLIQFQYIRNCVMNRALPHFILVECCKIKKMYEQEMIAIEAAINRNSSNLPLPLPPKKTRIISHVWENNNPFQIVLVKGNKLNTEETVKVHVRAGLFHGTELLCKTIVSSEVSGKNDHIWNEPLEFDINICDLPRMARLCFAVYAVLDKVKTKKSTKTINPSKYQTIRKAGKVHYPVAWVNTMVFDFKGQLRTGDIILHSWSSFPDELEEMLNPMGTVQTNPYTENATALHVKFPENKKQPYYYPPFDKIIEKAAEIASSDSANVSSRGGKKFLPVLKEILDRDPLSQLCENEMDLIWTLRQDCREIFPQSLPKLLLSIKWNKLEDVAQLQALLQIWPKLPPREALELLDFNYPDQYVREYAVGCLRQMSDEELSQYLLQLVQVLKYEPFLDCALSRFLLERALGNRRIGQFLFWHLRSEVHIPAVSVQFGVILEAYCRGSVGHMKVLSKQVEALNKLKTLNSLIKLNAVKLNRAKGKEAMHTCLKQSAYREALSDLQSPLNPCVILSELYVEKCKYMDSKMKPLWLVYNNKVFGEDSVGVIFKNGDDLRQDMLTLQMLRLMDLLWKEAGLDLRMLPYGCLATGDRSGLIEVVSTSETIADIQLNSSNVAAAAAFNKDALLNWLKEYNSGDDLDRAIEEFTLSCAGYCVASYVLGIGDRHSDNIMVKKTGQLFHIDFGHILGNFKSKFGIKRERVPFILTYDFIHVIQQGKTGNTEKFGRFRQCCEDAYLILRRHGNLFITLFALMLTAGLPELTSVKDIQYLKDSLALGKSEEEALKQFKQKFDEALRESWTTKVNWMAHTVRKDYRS", "UniProt P42336, whole entry": "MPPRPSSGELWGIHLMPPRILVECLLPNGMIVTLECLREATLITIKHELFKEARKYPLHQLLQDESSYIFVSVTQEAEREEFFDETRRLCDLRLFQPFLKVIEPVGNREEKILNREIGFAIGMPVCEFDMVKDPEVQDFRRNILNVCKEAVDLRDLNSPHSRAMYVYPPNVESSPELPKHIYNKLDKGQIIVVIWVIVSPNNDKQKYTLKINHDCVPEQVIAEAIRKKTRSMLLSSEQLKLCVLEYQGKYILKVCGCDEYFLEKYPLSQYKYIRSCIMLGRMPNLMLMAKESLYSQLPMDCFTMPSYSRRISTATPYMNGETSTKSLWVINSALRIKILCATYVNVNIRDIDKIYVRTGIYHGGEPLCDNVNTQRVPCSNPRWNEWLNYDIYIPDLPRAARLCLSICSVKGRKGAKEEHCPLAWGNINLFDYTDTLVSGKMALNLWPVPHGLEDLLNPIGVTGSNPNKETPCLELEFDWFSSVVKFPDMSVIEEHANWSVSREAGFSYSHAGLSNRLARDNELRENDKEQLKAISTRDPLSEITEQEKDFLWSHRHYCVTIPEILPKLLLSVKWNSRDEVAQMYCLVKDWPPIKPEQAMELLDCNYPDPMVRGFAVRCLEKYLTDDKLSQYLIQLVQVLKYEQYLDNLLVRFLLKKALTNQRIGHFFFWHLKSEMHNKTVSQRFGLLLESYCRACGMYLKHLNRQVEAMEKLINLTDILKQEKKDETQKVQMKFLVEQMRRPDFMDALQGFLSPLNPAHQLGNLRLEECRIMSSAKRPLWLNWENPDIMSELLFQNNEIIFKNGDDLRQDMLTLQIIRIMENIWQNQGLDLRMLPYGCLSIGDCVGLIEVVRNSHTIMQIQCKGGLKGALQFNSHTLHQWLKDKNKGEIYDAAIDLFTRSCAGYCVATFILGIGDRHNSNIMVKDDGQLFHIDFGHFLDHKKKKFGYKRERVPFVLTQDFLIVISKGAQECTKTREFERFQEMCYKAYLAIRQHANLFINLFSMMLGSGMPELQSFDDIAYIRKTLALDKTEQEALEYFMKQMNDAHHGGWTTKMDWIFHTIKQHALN", "UniProt P27986, whole entry partner": "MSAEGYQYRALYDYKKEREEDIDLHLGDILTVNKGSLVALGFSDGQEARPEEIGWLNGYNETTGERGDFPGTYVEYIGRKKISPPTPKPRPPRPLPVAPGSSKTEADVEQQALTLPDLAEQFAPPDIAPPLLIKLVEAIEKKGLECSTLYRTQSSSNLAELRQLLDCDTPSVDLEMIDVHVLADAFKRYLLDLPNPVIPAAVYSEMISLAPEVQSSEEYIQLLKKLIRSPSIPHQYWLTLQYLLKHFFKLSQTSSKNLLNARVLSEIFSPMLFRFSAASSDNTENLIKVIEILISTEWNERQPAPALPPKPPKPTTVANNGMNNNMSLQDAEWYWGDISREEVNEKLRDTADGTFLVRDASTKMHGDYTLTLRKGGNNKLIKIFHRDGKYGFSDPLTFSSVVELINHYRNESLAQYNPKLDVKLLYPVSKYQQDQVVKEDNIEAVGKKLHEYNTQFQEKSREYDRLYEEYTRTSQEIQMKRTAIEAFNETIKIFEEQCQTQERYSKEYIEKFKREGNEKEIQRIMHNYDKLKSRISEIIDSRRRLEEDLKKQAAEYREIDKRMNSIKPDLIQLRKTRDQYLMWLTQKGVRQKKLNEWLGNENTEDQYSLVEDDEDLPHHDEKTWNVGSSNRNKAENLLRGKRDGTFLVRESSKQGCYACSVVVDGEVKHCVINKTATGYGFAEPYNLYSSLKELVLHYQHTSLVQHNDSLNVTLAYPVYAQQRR"}, "source": "patent US11725012B2", "about": "“Imidazo[1,5-a]pyrazine derivatives as PI3K δ inhibitors” (priority 2016, dated 2023)", "format_in_all_cases": "biochemical", "key": {"[1]": {"target": "recombinant PI3K (p110δ/p85α) (Homo sapiens, UniProt O00329)", "assay": "PI3Kδ ADP-Glo kinase assay", "settings": "read-out: PI3Kδ Enzyme activity IC50"}, "PI3K (p110γ)": {"target": "PI3K (p110γ) (Homo sapiens, UniProt P48736)", "assay": "PI3Kγ ADP-Glo kinase assay", "settings": "read-out: PI3Kγ Enzyme activity IC50"}, "PI3K (p110β/p85α)": {"target": "PI3K (p110β/p85α) (Homo sapiens, UniProt P42338)", "assay": "PI3Kβ ADP-Glo kinase assay", "settings": "read-out: PI3Kβ Enzyme activity IC50"}, "[2]": {"target": "recombinant PI3K (p110α/p85α) (Homo sapiens, UniProt P42336)", "assay": "PI3Kα ADP-Glo kinase assay", "settings": "read-out: PI3Kα Enzyme activity IC50"}}, "data": [{"smiles": "COc1c([C@@H](C)c2nc(Br)c3c(N)nccn23)cc(Cl)c(C)c1-c1cccnc1", "values": [{"measurement": "IC50", "setting": "[1]", "value": 1600, "unit": "nM"}]}, {"smiles": "CC(C)Oc1c(C(C)c2nc(Cl)c3c(N)nccn23)cc(Cl)c(F)c1-c1ccc(=O)[nH]c1", "note": "(stereo not shown)", "values": [{"measurement": "IC50", "setting": "[1]", "value": 0.2, "unit": "nM"}, {"measurement": "IC50", "setting": "PI3K (p110γ)", "value": 170, "unit": "nM"}, {"measurement": "IC50", "setting": "PI3K (p110β/p85α)", "value": 190, "unit": "nM"}, {"measurement": "IC50", "setting": "[2]", "value": 810, "unit": "nM"}]}, {"smiles": "COc1c([C@H](C)c2nc(Br)c3c(N)nccn23)cc(Cl)c(C)c1-c1cccnc1", "values": [{"measurement": "IC50", "setting": "[1]", "value": 0.59, "unit": "nM"}, {"measurement": "IC50", "setting": "PI3K (p110γ)", "value": 150, "unit": "nM"}, {"measurement": "IC50", "setting": "[2]", "value": 360, "unit": "nM"}]}, {"smiles": "CCOc1c([C@@H](C)c2nc(Br)c3c(N)nccn23)cc(Cl)c(C)c1-c1ccc(C)nc1", "values": [{"measurement": "IC50", "setting": "[1]", "value": 43, "unit": "nM"}]}, {"smiles": "CCOc1c([C@H](C)c2nc(Br)c3c(N)nccn23)cc(Cl)c(C)c1-c1ccc(C)nc1", "values": [{"measurement": "IC50", "setting": "[1]", "value": 1.3, "unit": "nM"}, {"measurement": "IC50", "setting": "PI3K (p110γ)", "value": 210, "unit": "nM"}, {"measurement": "IC50", "setting": "PI3K (p110β/p85α)", "value": 180, "unit": "nM"}, {"measurement": "IC50", "setting": "[2]", "value": 580, "unit": "nM"}]}]}
